# Experimental data as given in patent US20130267547A1, “PRODRUGS UTILIZING A TRANSPORTER-DIRECTED UPTAKE MECHANISM” (VIRGINIA COMMONWEALTH UNIVERSITY, priority 2010, published 2013).
# “Also recorded” adds a separate entry of the source.
# System: BeWo cells
# Assay: Uptake of 3H-lopinavir, 3H-succinyl-lopinavir and 3H-carnitine-succinyl-lopinavir by BeWo cells, with and without transport inhibitors
# Conditions: 10 minutes at 37° C.
# Protocol: FIG. 10. […] BeWo cells (passage 38) were incubated with the compounds for 10 minutes at 37° C. or 4° C. in Dulbecco's phosphate buffered saline containing 0.05% bovine serum albumin. After incubation, the cells were washed with the cold buffer (lacking the compounds), and compounds were extracted from the cells into methanol followed by liquid scintillation analysis.
# Specifically, bromosulfophthalein (BSP) is an inhibitor of several organic anion transporters (OATs; gene family SLC22A), as well as organic anion transporting polypeptides (OATPs; gene family SLCO). […] Finally, taurocholate is a classic substrate for bile salt transporters, including the sodium-dependent taurocholate transporter (NTCP; SLC10A1), the apical bile salt transporter (ASBT; SLC10A2), and certain OATPs.
# The BeWo cell line is originally derived from a human choriocarcinoma. The BeWo cell line (Schwartz clone; passage 30) was a gift. BeWo cells in these studies is used between passages 30-70. BeWo cells are cultured in high glucose Dulbecco's modified Eagle's medium (DMEM) supplemented with 10% heat inactivated fetal bovine serum (FBS).
substance,measurement,value
Carnitine-succinyl-lopinavir [CS-LPV],"Uptake compared with LPV uptake, in words","significantly less than LPV uptake; also recorded: very low, worse than that of LPV"
